± gives the expanded uncertainty stated by the source.
Test: cn = amount concentration of the nth substance listed, in mol/dm3
Details: 298.15 K, 101 kPa, Liquid, Alternating current cell with electrodes

CCC[N+](CCC)(CCC)CCC.[O-][Cl+3]([O-])([O-])[O-] [tetrapropylammonium perchlorate] + CC(=O)CC(C)C
molar conductivity (c1 = 6.329e-05): 0.00855 ± 0.00017 S·m2/mol
molar conductivity (c1 = 8.893e-05): 0.00817 ± 0.00016 S·m2/mol
molar conductivity (c1 = 0.0001214): 0.00778 ± 0.00016 S·m2/mol
molar conductivity (c1 = 0.000152): 0.00744 ± 0.00015 S·m2/mol
molar conductivity (c1 = 0.000209): 0.00698 ± 0.00014 S·m2/mol
molar conductivity (c1 = 0.0002751): 0.00657 ± 0.00013 S·m2/mol
molar conductivity (c1 = 0.00037): 0.00612 ± 0.00012 S·m2/mol
molar conductivity (c1 = 0.0004913): 0.00569 ± 0.00011 S·m2/mol
molar conductivity (c1 = 0.0006591): 0.00526 ± 0.00011 S·m2/mol
molar conductivity (c1 = 0.0008839): 0.00484 ± 9.7e-05 S·m2/mol
molar conductivity (c1 = 0.001183): 0.00444 ± 8.9e-05 S·m2/mol
molar conductivity (c1 = 0.001582): 0.00406 ± 8.1e-05 S·m2/mol
molar conductivity (c1 = 0.002124): 0.00371 ± 7.4e-05 S·m2/mol
molar conductivity (c1 = 0.002843): 0.00338 ± 6.8e-05 S·m2/mol
molar conductivity (c1 = 0.003794): 0.00308 ± 6.2e-05 S·m2/mol

Reference: the NIST ThermoML archive (doi:10.1021/je9008969)
